# Source: PubChem BioAssay AID588814 (The Scripps Research Institute Molecular Screening Center, 2011)
# Chains of the proteins cited; added tags and fusions are not shown.
# UniProt P11229, whole entry: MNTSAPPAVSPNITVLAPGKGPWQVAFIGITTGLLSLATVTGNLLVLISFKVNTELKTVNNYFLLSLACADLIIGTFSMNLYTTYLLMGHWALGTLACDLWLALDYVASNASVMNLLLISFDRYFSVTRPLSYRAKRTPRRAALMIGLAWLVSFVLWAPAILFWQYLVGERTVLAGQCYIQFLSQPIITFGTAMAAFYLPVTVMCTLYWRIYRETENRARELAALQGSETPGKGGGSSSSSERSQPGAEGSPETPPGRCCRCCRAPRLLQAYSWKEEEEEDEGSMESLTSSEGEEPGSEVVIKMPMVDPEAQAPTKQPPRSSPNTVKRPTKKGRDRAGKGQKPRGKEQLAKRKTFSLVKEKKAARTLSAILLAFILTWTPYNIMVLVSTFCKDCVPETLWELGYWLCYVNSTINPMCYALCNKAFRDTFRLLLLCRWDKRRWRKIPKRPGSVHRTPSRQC
# The list shows a part of the results, in another mix than the full data. The source made the active and inactive calls.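 The calls were made as follows: active = activation above the run's mean compound activation plus 3 SD (cut at about 16% in these data); inactive = the rest.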
# Biological target: Muscarinic acetylcholine receptor M1 (Homo sapiens) (UniProt P11229)
# Experiment: CHRM1 activation via calcium signal – Fluo-8 calcium fluorescence, CHO-K1 cells, HTS, primary screen (AID 588814);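 also: peak over basal fluorescence ratio within a 140 s kinetic read after compound addition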
# Details: CHO-K1 hM1, Fluo-8 calcium fluorescence, agonist mode; at 3 µM; stronger effect = higher value; 0% DMSO, 100% acetylcholine EC100
row,SMILES,activation
1,CN1CCC(Nc2ccc(F)c(Cl)c2)CC1,inactive: -5.58%
2,CCOc1ncccc1C(=O)NCC1(N2CCOCC2)CCCCC1,inactive: -5.97%
3,CCCOc1ccc(C(=O)NCC2(N(C)C)CCCCC2)cc1,inactive: -9.22%
4,O=c1[nH]c2ccccc2n1C1CCN(C(c2cc3ccccc3o2)c2nnnn2C2CCCC2)CC1 (stereo not given),inactive: -0.14%
5,O=C(O)C1(Nc2ccccc2)CCN(Cc2ccccc2)CC1,inactive: -6.14%
6,CC(C)(C)OC(=O)N1CCC(Nc2ccccc2)CC1,inactive: -2.32%
7,CCC(CO)(C(=O)OC1CN2CCC1CC2)c1ccccc1 (stereo not given),inactive: -6.07%
8,COc1cccc(C(c2nnnn2C2CCCC2)N2CCC(n3c(=O)[nH]c4ccccc43)CC2)c1OC (stereo not given),inactive: -2.13%
9,COc1cc(OC)cc(C(=O)NCC2(N3CCOCC3)CCCCC2)c1,inactive: -3.77%
10,COc1cccc(C(=O)N(c2cc(C)cc(C)c2)C2CCN(C(=O)OC(C)(C)C)CC2)c1,inactive: -4.66%
11,CN1CCC(Nc2ccc(Cl)cc2)CC1,inactive: -0.24%
12,O=c1[nH]c2ccccc2n1C1CCN(C(c2ccnc3ccccc23)c2nnnn2C2CCCCC2)CC1 (stereo not given),inactive: 5.05%
13,COc1cc(OC)cc(C(=O)NCC2(N3CCCCC3)CCCCC2)c1,inactive: -7.59%
14,CCC(c1nnnn1C1CCCCC1)N1CCC(n2c(=O)[nH]c3ccccc32)CC1 (stereo not given),inactive: 6.63%
15,CC(=O)N(c1ccccc1)C1CCNCC1,inactive: -5.36%
16,COc1cccc(C(c2nnnn2C2CCCCC2)N2CCC(n3c(=O)[nH]c4ccccc43)CC2)c1OC (stereo not given),inactive: 3.57%
17,Cc1ccc(NC2(C#N)CCN(Cc3ccccc3)CC2)cc1,inactive: -2.56%
18,Fc1ccccc1NC1CCN(Cc2ccccc2)CC1,inactive: -3.45%
19,Cc1ccc(C(=O)NCC2(N3CCCCC3)CCCCC2)o1,inactive: -5.27%
20,CC(C)(C)n1nnnc1C(c1ccnc2ccccc12)N1CCC(n2c(=O)[nH]c3ccccc32)CC1 (stereo not given),inactive: 12.2%

row,SMILES,activation
1,COc1ccc(C(c2nnnn2C2CCCCC2)N2CCC(n3c(=O)[nH]c4ccccc43)CC2)cc1 (stereo not given),inactive: -1.76%
2,CCN1CCC(Nc2cccc(F)c2)CC1,inactive: -11.3%
3,Cc1ccccc1NC1(C#N)CCN(Cc2ccccc2)CC1,inactive: -3.99%
4,Cn1c(=O)[nH]cc(N(CCCl)CCCl)c1=O,inactive: -0.78%
5,CN(C)c1ccc(C(=O)NCC2(N3CCCCC3)CCCCC2)cc1,inactive: -4.17%
6,O=C(NCC1(N2CCCCC2)CCCCC1)c1ccco1,inactive: -5.17%
7,CC(C)(C)OC(=O)N1CCC(N(C(=O)c2ccccc2)c2ccc(Cl)cc2)CC1,inactive: -6.28%
8,N#Cc1ccc(C(=O)NCC2(N3CCCCC3)CCCCC2)cc1,inactive: -6.8%
9,O=c1[nH]c2ccccc2n1C1CCN(C(c2ccccc2)c2nnnn2C2CCCC2)CC1 (stereo not given),inactive: 11.2%
10,CCCN1CCC(Nc2cc(OC)cc(OC)c2)CC1,inactive: -9.45%
11,Cc1cc(N(CCCl)CCCl)ccc1C=O,inactive: -6.41%
12,c1ccc(CN2CCC(Nc3ccccc3)CC2)cc1,inactive: -4.95%
13,CN(C)C1(CNC(=O)c2cccc(C#N)c2)CCCCC1,inactive: -4.74%
14,CC(C)(C)n1nnnc1C(c1cccc2ccccc12)N1CCC(n2c(=O)[nH]c3ccccc32)CC1 (stereo not given),inactive: 1.99%
15,O=C(NCC1(N2CCOCC2)CCCCC1)c1cc(Br)ccc1Cl,inactive: -6.95%
16,COc1cc(C(=O)NCC2(N3CCOCC3)CCCCC2)cc(OC)c1C,inactive: -4.96%
17,CCCCn1nnnc1C(c1ccccc1)N1CCC(n2c(=O)[nH]c3ccccc32)CC1 (stereo not given),inactive: -6.11%
18,O=c1[nH]c2ccccc2n1C1CCN(C(c2ccnc3ccccc23)c2nnnn2C2CCCC2)CC1 (stereo not given),inactive: -2.66%
19,COc1ccc(C(=O)NCC2(N3CCOCC3)CCCCC2)cc1OC,inactive: 1.47%
20,O=c1[nH]c2ccccc2n1C1CCN(C(c2cccs2)c2nnnn2C2CCCCC2)CC1 (stereo not given),inactive: 3.16%

row,SMILES,activation
1,N/C(=N\O)c1c(N)no[n+]1[O-],inactive: -2.67%
2,COc1cccc(C(c2nnnn2C(C)(C)C)N2CCC(n3c(=O)[nH]c4ccccc43)CC2)c1OC (stereo not given),inactive: 9.02%
3,CCOC(=O)N1CCC(Nc2ccc(C)cc2)CC1,inactive: -10.3%
4,CCCCn1nnnc1C(c1cccc(OC)c1OC)N1CCC(n2c(=O)[nH]c3ccccc32)CC1 (stereo not given),inactive: -0.43%
5,O=c1[nH]c2ccccc2n1C1CCN(C(c2cccs2)c2nnnn2C2CCCC2)CC1 (stereo not given),inactive: -1.59%
6,O=C(OC1CN2CCC1CC2)C1c2ccccc2C=Cc2ccccc21 (stereo not given),inactive: -13.4%
7,CN(C)c1cccc(C(=O)NCC2(N3CCCCC3)CCCCC2)c1,inactive: -7.95%
8,COc1ccc(CN(CCCl)CCCl)cc1Cl,inactive: -7.2%
9,CC(C)c1ccc(NC2CCN(C(=O)OC(C)(C)C)CC2)cc1,inactive: -5.88%
10,CCCCn1nnnc1C(c1ccccc1OC(F)(F)F)N1CCC(n2c(=O)[nH]c3ccccc32)CC1 (stereo not given),inactive: -0.97%
11,CCCCn1nnnc1C(c1ccnc2ccccc12)N1CCC(n2c(=O)[nH]c3ccccc32)CC1 (stereo not given),inactive: -9.48%
12,CCC(c1nnnn1C(C)(C)C)N1CCC(n2c(=O)[nH]c3ccccc32)CC1 (stereo not given),inactive: -3.52%
13,O=C(NCC1(N2CCOCC2)CCCCC1)c1cc(F)c(F)cc1Cl,inactive: -6.04%
14,COc1cc(OC)c(C(=O)NCC2(N(C)C)CCCCC2)cc1OC,inactive: -6.56%
15,O=C(NCC1(N2CCCCC2)CCCCC1)c1cncc(Br)c1,inactive: -7.44%
16,CN1CCC(Nc2cccc(F)c2)CC1,inactive: 1.52%
17,CCCOc1ccc(C(=O)NCC2(N(C)C)CCCCC2)cc1OC,inactive: -6.41%
18,Cc1ccc(C(=O)NCC2(N(C)C)CCCCC2)o1,inactive: -4.38%
19,COc1ccc(C(c2nnnn2C2CCCC2)N2CCC(n3c(=O)[nH]c4ccccc43)CC2)cc1 (stereo not given),inactive: 0.78%
20,O=C(NCC1(N2CCCCC2)CCCCC1)c1ccc(OC(F)F)cc1,inactive: -9.05%
